For experiment [1], the target named is Opioid receptors; mu/kappa/delta. The experiment is described as follows: Inhibition of 0.5 nM [3H]bremazocine binding to guinea pig brain membrane opioid receptors.
For experiment [2], the target named is Kappa-type opioid receptor (Cavia porcellus, UniProt P41144). The experiment in a line: Displacement of 0.5 nM [3H]bremazocine from guinea pig brain membrane opioid receptor kappa with 100 nM DAGO and 100 nM DPDPE.
A further experiment has as its target Mu-type opioid receptor (Cavia porcellus, UniProt P97266).

Chains of the proteins cited; added tags and fusions are not shown. Lines headed by an entry give the natural chain unless they say otherwise; changes in a name come on top.
UniProt P41144: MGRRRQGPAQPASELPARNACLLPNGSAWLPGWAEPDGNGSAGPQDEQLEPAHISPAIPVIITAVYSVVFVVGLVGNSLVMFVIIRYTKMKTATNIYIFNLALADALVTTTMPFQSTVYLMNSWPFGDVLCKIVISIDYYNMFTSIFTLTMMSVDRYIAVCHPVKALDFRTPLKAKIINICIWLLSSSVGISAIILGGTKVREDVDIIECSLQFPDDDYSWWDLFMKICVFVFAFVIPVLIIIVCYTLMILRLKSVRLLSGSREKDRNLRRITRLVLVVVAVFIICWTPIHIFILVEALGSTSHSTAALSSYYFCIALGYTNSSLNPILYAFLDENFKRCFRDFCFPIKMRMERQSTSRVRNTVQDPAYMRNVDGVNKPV
UniProt P97266, whole entry, looked up: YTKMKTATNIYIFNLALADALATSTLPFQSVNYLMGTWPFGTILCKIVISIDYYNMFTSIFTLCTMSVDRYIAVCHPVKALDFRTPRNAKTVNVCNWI

The term IC50 denotes the concentration that gives 50% inhibition. Read a high IC50 as weaker potency. As for `C=C(CO[C@@H]1CC[C@@]2(O)[C@H]3Cc4ccc(O)c5c4[C@@]2(CCN3CC2CC2)[C@H]1O5)C(=O)OC` [listing 1 of 2 here], in experiment [1], the IC50 was found to be 11 nM. On to `C=C(CO[C@@H]1CC[C@@]2(O)[C@H]3Cc4ccc(O)c5c4[C@@]2(CCN3CC2CC2)[C@H]1O5)C(=O)OC` [listing 2 of 2 here], for which the IC50 in experiment [2] stood at 21 nM; on Mu-type opioid receptor, 2.5 nM.
